# Data reported in patent US9452986B2, “6-heteroaryloxy- or 6-aryloxy-quinoline-2-carboxamides and method of use” (AbbVie Inc., priority 2014, dated 2016).
# Protein sequences, listed by entry. Tags and fused reporters are not part of them.
# UniProt Q15858, whole entry: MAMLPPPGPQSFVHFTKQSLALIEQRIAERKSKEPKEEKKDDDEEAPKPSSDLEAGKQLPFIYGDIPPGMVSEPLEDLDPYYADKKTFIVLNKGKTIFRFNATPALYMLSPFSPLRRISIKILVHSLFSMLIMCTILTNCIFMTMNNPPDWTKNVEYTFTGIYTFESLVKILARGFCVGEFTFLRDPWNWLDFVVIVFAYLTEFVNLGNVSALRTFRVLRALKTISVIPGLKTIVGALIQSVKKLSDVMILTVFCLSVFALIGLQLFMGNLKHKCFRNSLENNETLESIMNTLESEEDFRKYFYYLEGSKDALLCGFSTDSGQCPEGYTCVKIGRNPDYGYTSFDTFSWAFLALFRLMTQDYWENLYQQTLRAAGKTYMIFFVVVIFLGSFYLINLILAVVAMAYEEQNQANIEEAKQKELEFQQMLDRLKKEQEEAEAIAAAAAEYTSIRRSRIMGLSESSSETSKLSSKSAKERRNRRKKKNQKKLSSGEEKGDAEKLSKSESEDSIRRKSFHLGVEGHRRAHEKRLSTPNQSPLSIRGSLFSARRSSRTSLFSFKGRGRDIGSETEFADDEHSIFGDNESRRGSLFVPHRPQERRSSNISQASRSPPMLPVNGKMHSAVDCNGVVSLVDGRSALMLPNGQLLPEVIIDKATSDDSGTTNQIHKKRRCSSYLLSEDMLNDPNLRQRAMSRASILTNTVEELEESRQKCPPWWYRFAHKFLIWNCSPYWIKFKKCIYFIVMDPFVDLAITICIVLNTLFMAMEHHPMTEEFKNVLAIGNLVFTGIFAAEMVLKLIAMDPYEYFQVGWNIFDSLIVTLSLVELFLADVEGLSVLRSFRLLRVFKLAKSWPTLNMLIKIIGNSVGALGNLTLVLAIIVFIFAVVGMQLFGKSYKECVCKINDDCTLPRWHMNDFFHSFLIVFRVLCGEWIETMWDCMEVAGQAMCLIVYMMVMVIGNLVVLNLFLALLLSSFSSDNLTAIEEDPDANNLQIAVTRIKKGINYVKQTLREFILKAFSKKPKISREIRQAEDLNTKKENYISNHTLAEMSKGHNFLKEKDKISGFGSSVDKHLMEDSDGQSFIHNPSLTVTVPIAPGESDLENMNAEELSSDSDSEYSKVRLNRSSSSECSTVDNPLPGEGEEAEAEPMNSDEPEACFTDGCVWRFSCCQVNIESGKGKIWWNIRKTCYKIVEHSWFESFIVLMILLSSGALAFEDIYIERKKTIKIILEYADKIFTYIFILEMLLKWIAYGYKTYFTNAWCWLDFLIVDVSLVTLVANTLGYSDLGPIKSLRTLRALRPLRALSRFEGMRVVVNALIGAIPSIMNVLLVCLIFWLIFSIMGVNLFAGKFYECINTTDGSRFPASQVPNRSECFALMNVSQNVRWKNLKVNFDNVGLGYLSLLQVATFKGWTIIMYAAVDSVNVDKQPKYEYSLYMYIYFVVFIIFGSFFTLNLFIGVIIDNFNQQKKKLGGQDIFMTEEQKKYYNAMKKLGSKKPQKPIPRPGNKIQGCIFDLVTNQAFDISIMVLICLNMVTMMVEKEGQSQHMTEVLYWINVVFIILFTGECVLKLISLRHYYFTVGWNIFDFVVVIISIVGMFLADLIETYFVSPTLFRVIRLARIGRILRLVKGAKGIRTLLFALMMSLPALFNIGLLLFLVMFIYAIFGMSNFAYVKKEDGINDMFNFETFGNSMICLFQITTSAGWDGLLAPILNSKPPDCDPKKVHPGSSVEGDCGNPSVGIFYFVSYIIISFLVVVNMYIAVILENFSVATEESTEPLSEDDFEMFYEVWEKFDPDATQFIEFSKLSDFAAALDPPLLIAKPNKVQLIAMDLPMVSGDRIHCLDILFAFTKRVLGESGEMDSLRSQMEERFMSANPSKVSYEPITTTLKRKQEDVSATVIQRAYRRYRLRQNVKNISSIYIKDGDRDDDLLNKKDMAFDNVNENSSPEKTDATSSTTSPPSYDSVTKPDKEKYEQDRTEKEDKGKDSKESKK
# Biological target: recombinant human Nav1.7 (Homo sapiens (Human), UniProt Q15858)
# Assay: FRET-based membrane potential assay, recombinant human sodium channel Nav1.7
# Conditions: read-out: FRET-Membrane Potential Nav1.7 IC50
smiles,measurement,value
"O=C(NCC(=O)N1CCCC1)c1ccc2cc(Oc3ccc(C(F)(F)F)cn3)ccc2n1 [Example 44, N-[2-oxo-2-(pyrrolidin-1-yl)ethyl]-6-{[5-(trifluoromethyl)pyridin-2-yl]oxy}quinoline-2-carboxamide]",IC50,1670 nM
